Values of other authors as cited in patent US7214771B2, “Nucleic acid and protein expression thereby and their involvement in stress” (University of Medicine & Dentistry of New Jersey, priority 1999, dated 2007).

Assays:
[1] = system: human bladder cancer and human testicular embryonal germ cell carcinoma; conditions: dipyridamole alone; cited from earlier work
[2] = system: human ovarian cancer cells; conditions: with cisplatin; both sensitive and resistant human ovarian cancer cells; cited from earlier work

OCCN(CCO)c1nc(N2CCCCC2)c2nc(N(CCO)CCO)nc(N3CCCCC3)c2n1 [dipyridamole]
cytotoxicity of agent alone [1]: not cytotoxic
enhancement of cisplatin cytotoxicity [2]: 65%
